From ChEMBL document CHEMBL1135388, “Design and synthesis of pyrrolidine-5,5-trans-lactams (5-oxohexahydropyrrolo[3,2-b]pyrroles) as novel mechanism-based inhibitors of human cytomegalovirus protease. 2. Potency and chirality” (J Med Chem, 2002)

Columns and labels:
[1] = target: T1, Capsid scaffolding protein (Human cytomegalovirus (strain AD169) (HHV-5) (Human herpesvirus 5), UniProt P16753); assay: Concentration required for inhibition of human cytomegalo virus (HCMV) protease activity.; design: species or system Human herpesvirus 5 strain AD169
T1 sequence (P16753 whole entry): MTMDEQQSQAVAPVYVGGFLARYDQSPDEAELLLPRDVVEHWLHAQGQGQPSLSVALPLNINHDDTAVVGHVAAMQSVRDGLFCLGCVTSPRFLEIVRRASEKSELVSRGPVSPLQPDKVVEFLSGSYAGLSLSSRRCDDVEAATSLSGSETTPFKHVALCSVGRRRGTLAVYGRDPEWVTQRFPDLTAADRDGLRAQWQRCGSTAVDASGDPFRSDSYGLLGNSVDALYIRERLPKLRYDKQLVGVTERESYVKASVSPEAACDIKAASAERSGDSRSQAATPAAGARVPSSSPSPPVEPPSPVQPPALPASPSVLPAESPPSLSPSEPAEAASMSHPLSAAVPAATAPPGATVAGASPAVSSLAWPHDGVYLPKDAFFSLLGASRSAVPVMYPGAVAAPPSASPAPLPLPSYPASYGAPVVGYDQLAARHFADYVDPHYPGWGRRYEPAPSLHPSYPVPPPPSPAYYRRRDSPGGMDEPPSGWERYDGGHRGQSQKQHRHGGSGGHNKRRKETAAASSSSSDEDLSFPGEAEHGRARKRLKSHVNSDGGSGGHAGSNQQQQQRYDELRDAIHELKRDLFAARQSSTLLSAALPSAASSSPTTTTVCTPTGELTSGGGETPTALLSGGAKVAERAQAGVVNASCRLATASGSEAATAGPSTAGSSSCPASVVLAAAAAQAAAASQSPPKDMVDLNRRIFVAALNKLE
How it was run: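 Chromogenic microtiter assay using recombinant HCMV δAla protease and the 7-mer release-site peptide p-nitroanilide RESYVKA-pNA as substrate. Enzyme preincubated with inhibitor for 15 min before the reaction. Cleavage was followed by pNA release, and IC50 was derived from the resulting inhibition data.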

[2] = target: T1, Capsid scaffolding protein; assay: Inhibition of Human cytomegalo virus(HCMV) protease activity measured by HPLC assay; design: species or system Human herpesvirus 5 strain AD169

**Q.** With `C[C@@H]1C(=O)N(C(=O)C2CC2)[C@H]2CCN(C(=O)[C@@H]3CCCN3S(=O)(=O)c3cccc4c(N(C)C)cccc34)[C@H]12` as the compound, how does the IC50 [1] read?
**A.** 0.34 µM

**Q.** How did the IC50 [2] turn out when `CC(=O)N1C(=O)C(C)C2C1CCN2C(=O)OCc1ccccc1` (centres undefined) was run?
**A.** 110 µM

**Q.** How did the IC50 [2] turn out when `CC(=O)N1C(=O)[C@H](C)C2[C@H]1CCN2C(=O)OCc1ccccc1` (some centres undefined) was run?
**A.** > 1000 µM

**Q.** How did the IC50 [2] turn out when `CC(=O)N1C(=O)[C@@H](C)C2[C@@H]1CCN2C(=O)OCc1ccccc1` (some centres undefined) was run?
**A.** 79 µM
